Assay results reported in patent US20260022143A1, “Cyclic Peptide Inhibitors of IL-23” (JANSSEN PHARMACEUTICA NV, priority 2022, published 2026).

Each molecule was assayed against T1, IL-23R (Homo sapiens, UniProt Q5VWK5) (assay: IL23R Reporter Assay). Conditions: HEK293 cells containing IL-23R, IL-12RP1 and STAT-inducible firefly luciferase reporter; 10 ng/mL IL-23 (EC90); 5 h at 37° C.; read-out: IL23R Reporter Assay.
T1 construct: host or cells: HEK293
T1 sequence (Q5VWK5 24-629): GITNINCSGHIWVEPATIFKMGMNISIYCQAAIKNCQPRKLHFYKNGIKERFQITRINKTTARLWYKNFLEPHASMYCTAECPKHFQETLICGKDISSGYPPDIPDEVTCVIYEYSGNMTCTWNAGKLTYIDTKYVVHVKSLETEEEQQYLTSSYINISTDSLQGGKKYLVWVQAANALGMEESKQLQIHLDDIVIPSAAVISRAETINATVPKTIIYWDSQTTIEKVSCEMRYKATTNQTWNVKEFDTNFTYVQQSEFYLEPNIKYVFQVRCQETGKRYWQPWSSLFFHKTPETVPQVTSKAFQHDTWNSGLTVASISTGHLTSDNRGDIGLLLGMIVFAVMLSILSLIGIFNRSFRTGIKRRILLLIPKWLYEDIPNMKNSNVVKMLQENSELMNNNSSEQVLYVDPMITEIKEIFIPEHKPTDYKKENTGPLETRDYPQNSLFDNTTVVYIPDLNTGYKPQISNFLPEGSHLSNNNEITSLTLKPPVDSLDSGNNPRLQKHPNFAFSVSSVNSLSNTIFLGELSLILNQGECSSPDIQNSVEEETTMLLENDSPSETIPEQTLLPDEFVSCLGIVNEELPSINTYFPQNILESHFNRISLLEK
Type: cell-based

Structure (SMILES)	IC50
CC(=O)N(C)CCCC[C@@H]1NC(=O)[C@H](Cc2c[nH]c3c(C)cccc23)NC(=O)[C@H]([C@@H](C)O)NC(=O)[C@H](CC(=O)N(C)C)NC(=O)[C@@H](NC(=O)CCOCCOCC[N+](C)(C)C)C(C)(C)SSC(C)(C)[C@@H](C(=O)N[C@@H](Cc2ccc(OCCNCC[N+](C)(C)C)cc2)C(=O)N[C@@H](Cc2ccc3ccccc3c2)C(=O)NC2(C(=O)N[C@@H](CCCCN(C)C(C)=O)C(=O)N[C@@H](CC(N)=O)C(=O)N[C@@H](Cc3cccnc3)C(=O)N(C)CC(=O)N(C)C)CCOCC2)NC1=O [compound 211, cPEG3aCo-Pen(3)-N(NMe2)-T-7MeW-K(NMeAc)-Pen(3)-AEF(NHCh)-2Nal-THP-K(NMeAc)-N-3Pya-Sar-CON(Me)2]	2.3 nM
CC(=O)N(C)CCCC[C@@H]1NC(=O)[C@H](Cc2c[nH]c3c(C)cccc23)NC(=O)[C@H]([C@@H](C)O)NC(=O)[C@H](CC(=O)N(C)C)NC(=O)[C@@H](NC(=O)CCOCCOCC[N+](C)(C)C)C(C)(C)SSC(C)(C)[C@@H](C(=O)N[C@@H](Cc2ccc(OCC3CCC[N+](C)(C)C3)cc2)C(=O)N[C@@H](Cc2ccc3ccccc3c2)C(=O)NC2(C(=O)N[C@@H](CCCCN(C)C(C)=O)C(=O)N[C@@H](CC(N)=O)C(=O)N[C@@H](Cc3cccnc3)C(=O)N(C)CC(=O)N(C)C)CCOCC2)NC1=O (stereo partly drawn) [compound 215, cPEG3aCO-Pen(3)-N(N(Me)2)-T-7MeW-K(NMeAc)-Pen(3)-DMMMF-2Nal-THP-K(NMeAc)-N-3Pya-Sar-CON(Me)2]	2.3 nM
CC(=O)N[C@@H]1C(=O)N[C@@H](CC(=O)N(C)C)C(=O)N[C@@H]([C@@H](C)O)C(=O)N[C@@H](Cc2c[nH]c3c(C)cccc23)C(=O)N[C@@H](CCCCN(C)C(C)=O)C(=O)N[C@H](C(=O)N[C@@H](Cc2ccc(OCCCCC[N+](C)(C)C)cc2)C(=O)N[C@@H](Cc2ccc3ccccc3c2)C(=O)NC2(C(=O)N[C@@H](CCCCN(C)C(C)=O)C(=O)N[C@@H](CC(N)=O)C(=O)N[C@@H](Cc3cccnc3)C(=O)N(C)CC(=O)NCCOCCOCC[N+](C)(C)C)CCOCC2)C(C)(C)SSC1(C)C [compound 219, MeCO-Pen(3)-N(N(Me)2)-T-7MeW-K(NMeAc)-Pen(3)-TMAPF-2Nal-THP-K(NMeAc)-N-3Pya-Sar-CO(NHPEG3a)]	2.7 nM
CC(=O)N(C)CCCC[C@@H]1NC(=O)[C@H](Cc2c[nH]c3c(C)cccc23)NC(=O)[C@H]([C@@H](C)O)NC(=O)[C@H](CC(=O)N(C)C)NC(=O)[C@@H](NC(=O)CCOCCOCC[N+](C)(C)C)C(C)(C)SSC(C)(C)[C@@H](C(=O)N[C@@H](Cc2ccc(OCCOCCOCC[N+]3(C)CCOCC3)cc2)C(=O)N[C@@H](Cc2ccc3ccccc3c2)C(=O)NC2(C(=O)N[C@@H](CCCCN(C)C(C)=O)C(=O)N[C@@H](CC(N)=O)C(=O)N[C@@H](Cc3cccnc3)C(=O)N(C)CC(=O)N(C)C)CCOCC2)NC1=O [compound 223, cPEG3aCO-Pen(3)-N(N(Me)2)-T-7MeW-K(NMeAc)-Pen(3)-MMPEG3F-2Nal-THP-K(NMeAc)-N-3Pya-Sar-CON(Me)2]	2.2 nM
CC(=O)N(C)CCCC[C@@H]1NC(=O)[C@H](Cc2c[nH]c3c(C)cccc23)NC(=O)[C@H]([C@@H](C)O)NC(=O)[C@H](CC(=O)N(C)C)NC(=O)[C@@H](NC(=O)CCOCCOCC[N+](C)(C)C)C(C)(C)SSC(C)(C)[C@@H](C(=O)N[C@@H](Cc2ccc(OCCCC[N+](C)(C)C)cc2)C(=O)N[C@@H](Cc2ccc3ccccc3c2)C(=O)NC2(C(=O)N[C@@H](CCCCN(C)C(C)=O)C(=O)N[C@@H](CC(N)=O)C(=O)N[C@@H](Cc3cccnc3)C(=O)N(C)CC(=O)N(C)C)CCOCC2)NC1=O [compound 226, cPEG3aCO-Pen(3)-N(N(Me)2)-T-7MeW-K(NMeAc)-Pen(3)-TMA4F-2Nal-THP-K(NMeAc)-N-3Pya-Sar-CON(Me)2]	2.8 nM
CC(=O)N(C)CCCC[C@@H]1NC(=O)[C@H](Cc2c[nH]c3c(C)cccc23)NC(=O)[C@H]([C@@H](C)O)NC(=O)[C@H](CC(=O)N(C)C)NC(=O)[C@@H](NC(=O)CCOCCOCC[N+](C)(C)C)C(C)(C)SSC(C)(C)[C@@H](C(=O)N[C@@H](Cc2ccc(OCCN(C)CCC[N+](C)(C)C)cc2)C(=O)N[C@@H](Cc2ccc3ccccc3c2)C(=O)NC2(C(=O)N[C@@H](CCCCN(C)C(C)=O)C(=O)N[C@@H](CC(N)=O)C(=O)N[C@@H](Cc3cccnc3)C(=O)N(C)CC(=O)N(C)C)CCOCC2)NC1=O [compound 234, cPEG3aCO-Pen(3)-N(N(Me)2)-T-7MeW-K(NMeAc)-Pen(3)-AEF(MePrpa)-2Nal-THP-K(NMeAc)-N-3Pya-Sar-CON(Me)2]	3.3 nM
CC(=O)NCCCC[C@@H]1NC(=O)[C@H](Cc2c[nH]c3c(C)cccc23)NC(=O)[C@H]([C@@H](C)O)NC(=O)[C@H](CC(N)=O)NC(=O)[C@@H](NC(C)=O)C(C)(C)SSC(C)(C)[C@@H](C(=O)N[C@@H](Cc2ccc(OCCn3cc(CC[N+](C)(C)C)nn3)cc2)C(=O)N[C@@H](Cc2ccc3ccccc3c2)C(=O)NC2(C(=O)N[C@@H](CCCCNC(C)=O)C(=O)N[C@@H](CC(N)=O)C(=O)N[C@@H](Cc3cccnc3)C(=O)N(C)CC(N)=O)CCOCC2)NC1=O [compound 235]	3.3 nM
CC(=O)N(C)CCCC[C@@H]1NC(=O)[C@H](Cc2c[nH]c3c(C)cccc23)NC(=O)[C@H]([C@@H](C)O)NC(=O)[C@H](CC(=O)N(C)C)NC(=O)[C@@H](NC(=O)CCOCCOCC[N+](C)(C)C)C(C)(C)SSC(C)(C)[C@@H](C(=O)N[C@@H](Cc2ccc(OCCN(C)CCOCC[N+](C)(C)C)cc2)C(=O)N[C@@H](Cc2ccc3ccccc3c2)C(=O)NC2(C(=O)N[C@@H](CCCCN(C)C(C)=O)C(=O)N[C@@H](CC(N)=O)C(=O)N[C@@H](Cc3cccnc3)C(=O)N(C)CC(=O)N(C)C)CCOCC2)NC1=O [compound 237, cPEG3aCO-Pen(3)-N(N(Me)2)-T-7MeW-K(NMeAc)-Pen(3)-AEF(NMePEG2a)-2Nal-THP-K(NMeAc)-N-3Pya-Sar-CON(Me)2]	2.7 nM

The remaining molecules from weak to strong by IC50, led by results:

IC50	Structure (SMILES)
3.9 nM	CC(=O)NCCCC[C@@H]1NC(=O)[C@H](Cc2c[nH]c3c(C)cccc23)NC(=O)[C@H]([C@@H](C)O)NC(=O)[C@H](CC(=O)N(C)C)NC(=O)[C@@H](NC(=O)CCOCCOCC[N+](C)(C)C)C(C)(C)SSC(C)(C)[C@@H](C(=O)N[C@@H](Cc2ccc(OCCOCCOCC[N+](C)(C)C)cc2)C(=O)N[C@@H](Cc2ccc3ccccc3c2)C(=O)NC2(C(=O)N[C@@H](CCCCN(C)C(C)=O)C(=O)N[C@@H](CC(N)=O)C(=O)N[C@@H](Cc3cccnc3)C(=O)N(C)CC(=O)N(C)C)CCOCC2)NC1=O [compound 243, cPEG3aCO-Pen(3)-N(N(Me)2)-T-7MeW-K(Ac)-Pen(3)-APEG3F-2Nal-THP-K(NMeAc)-N-3Pya-Sar-CON(Me)2]
2.9 nM	COCCOCCOCC(=O)NCC[N+](C)(C)CC(=O)N[C@@H]1C(=O)N[C@@H](CC(=O)N(C)C)C(=O)N[C@@H]([C@@H](C)O)C(=O)N[C@@H](Cc2c[nH]c3c(C)cccc23)C(=O)N[C@@H](CCCCN(C)C(C)=O)C(=O)N[C@H](C(=O)N[C@@H](Cc2ccc(OCCOCCOCC[N+](C)(C)C)cc2)C(=O)N[C@@H](Cc2ccc3ccccc3c2)C(=O)NC2(C(=O)N[C@@H](CCN(C)C(C)=O)C(=O)N[C@@H](CC(N)=O)C(=O)N[C@@H](Cc3cccnc3)C(=O)N(C)CC(=O)N(C)C)CCOCC2)C(C)(C)SSC1(C)C [compound 197, mPEG3CO-SP6-Pen(3)-N(N(Me)2)-T-7MeW-K(NMeAc)-Pen(3)-APEG3F-2Nal-THP-Dab(NMeAc)-N-3Pya-Sar-CON(Me)2]
2.9 nM	CC(=O)N[C@H](CCCC[N+](C)(C)C)C(=O)N[C@@H]1C(=O)N[C@@H](CC(=O)N(C)C)C(=O)N[C@@H]([C@@H](C)O)C(=O)N[C@@H](Cc2c[nH]c3c(C)cccc23)C(=O)N[C@@H](CCCCN(C)C(C)=O)C(=O)N[C@H](C(=O)N[C@@H](Cc2ccc(OCCOCCOCC[N+](C)(C)C)cc2)C(=O)N[C@@H](Cc2ccc3ccccc3c2)C(=O)NC2(C(=O)N[C@@H](CCCCN(C)C(C)=O)C(=O)N[C@@H](CC(N)=O)C(=O)N[C@@H](Cc3cccnc3)C(=O)N(C)CC(=O)N(C)C)CCOCC2)C(C)(C)SSC1(C)C [compound 216, MeCO-k(Me)3-Pen(3)-N(N(Me)2)-T-7MeW-K(NMeAc)-Pen(3)-APEG3F-2Nal-THP-K(NMeAc)-N-3Pya-Sar-CON(Me)2]
2.9 nM	CC(=O)N(C)CCCC[C@@H]1NC(=O)[C@H](Cc2c[nH]c3c(C)cccc23)NC(=O)[C@H]([C@@H](C)O)NC(=O)[C@H](CC(=O)N(C)C)NC(=O)[C@@H](NC(=O)CCOCCOCC[N+](C)(C)C)C(C)(C)SSC(C)(C)[C@@H](C(=O)N[C@@H](Cc2ccc(OCC[n+]3ccccc3)cc2)C(=O)N[C@@H](Cc2ccc3ccccc3c2)C(=O)NC2(C(=O)N[C@@H](CCCCN(C)C(C)=O)C(=O)N[C@@H](CC(N)=O)C(=O)N[C@@H](Cc3cccnc3)C(=O)N(C)CC(=O)N(C)C)CCOCC2)NC1=O [compound 231, cPEG3aCO-Pen(3)-N(N(Me)2)-T-7MeW-K(NMeac)-Pen(3)-NPyEF-2Nal-THP-K(NMeAc)-N-3Pya-Sar-CON(Me)2]
2.4 nM	COCCOCCOCC[N+](C)(CCOCCOCCOC)CCOc1ccc(C[C@H](NC(=O)[C@H]2NC(=O)[C@H](CCCCN(C)C(C)=O)NC(=O)[C@H](Cc3c[nH]c4c(C)cccc34)NC(=O)[C@H]([C@@H](C)O)NC(=O)[C@H](CC(=O)N(C)C)NC(=O)[C@@H](NC(=O)CCOCCOCC[N+](C)(C)C)C(C)(C)SSC2(C)C)C(=O)N[C@@H](Cc2ccc3ccccc3c2)C(=O)NC2(C(=O)N[C@@H](CCCCN(C)C(C)=O)C(=O)N[C@@H](CC(N)=O)C(=O)N[C@@H](Cc3cccnc3)C(=O)N(C)CC(=O)N(C)C)CCOCC2)cc1 [compound 241, cPEG3aCO-Pen(3)-N(N(Me)2)-T-7MeW-K(NMeAc)-Pen(3)-AEF(NMeBismPEG3)-2Nal-THP-K(NMeAc)-N-3Pya-Sar-CON(Me)2]
